Measurements reported in US20250027072A1, “METHODS AND COMPOSITIONS RELATED TO ENGINEERED CANNABINOID RECEPTORS” (priority 2021, published 2025).

Sequences of proteins named here, by UniProt entry; tags and fusion partners are left off.
UniProt P34972, whole entry: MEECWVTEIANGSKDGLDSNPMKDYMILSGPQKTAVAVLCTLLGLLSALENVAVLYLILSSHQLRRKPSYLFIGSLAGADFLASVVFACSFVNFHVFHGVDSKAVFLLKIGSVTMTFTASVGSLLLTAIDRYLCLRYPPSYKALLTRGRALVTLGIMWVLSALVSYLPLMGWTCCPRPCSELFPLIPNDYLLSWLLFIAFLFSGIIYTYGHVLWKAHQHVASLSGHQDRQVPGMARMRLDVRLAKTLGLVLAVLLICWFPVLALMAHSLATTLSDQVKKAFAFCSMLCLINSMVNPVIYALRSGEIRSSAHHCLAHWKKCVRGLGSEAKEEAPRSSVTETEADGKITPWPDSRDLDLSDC

Molecular target: human cannabinoid receptor type II (CB2R) (Homo sapiens, UniProt P34972)

CC(C)(C)C(NC(=O)c1nn(Cc2ccccc2)c2ccccc12)C(N)=O (stereo not drawn)
signaling at CB2R in synthetic cannabinoid screen (compounds at 1 μM): strong CB2R agonist
preference at CB2R of ADB-BINACA over AB-PINACA (from EC50 values): roughly 100 times
EC50 (read-out: EC50 at CB2R, dose response, MFα-CB2R, ST03 sterol strain, pH 5.8): 1.15 nM
